Shown are actives, neighbours in structure and some others; about 2.8% of the full set was active somewhere.
E-sel inducer = induces E-selectin expression in human endothelial cells; P16581; HUVEC E-selectin immunofluorescence imaging; normalized: neutral wells 0, TNF-alpha wells 100; activation, % at 7.58 µM; 0.37% of 260,000 active; AID 686992;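 active = mean E-selectin-positive cell signal at least 10% of the positive control, reached in at least 60% of replicates, without over 20% cell loss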
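Read-out: % PE-positive cells | Test system: HUVEC | Doses: One compound dose added by pin transfer | Buffer or medium: EGM-2 over gelatin coat | Signal: Immunofluorescence imaging | Benchmarks: TNF-alpha, DMSO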
PGC1a acetyl inh = PGC1a acetylation modulation, inhibitor mode; U2OS PGC1a acetylation, AlphaScreen anti-acetyl-lysine; with virally co-expressed GCN5 acetyltransferase; inhibition, % at 15.6 µM; 0.17% of 350,000 active;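 active = every replicate shows inhibition of at least 40%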;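 also: 0% = neutral control wells and 100% = positive control wells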
UUG fidelity = modulators of start codon recognition fidelity in yeast. S. cerevisiae UUG-firefly luciferase reporter, luminescence/redox ratio. activity score, % at 18.7 µM. 0.13% of 350,000 active. AID 602363;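 active = replicate mean at a twofold rise or more, about +100% in these data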;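 also: firefly luciferase made from a UUG start codon reports start codon fidelity; reporter light over untreated wells divided by growth signal over untreated wells; some hits fall short of that in this replicate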
Statin myotox sup = suppression of simvastatin myotoxicity. rescue of ATP level, % at 7.49 µM. C2C12 myotubes + simvastatin, ATP luminescence, 48 h; scaled: DMSO 0, geranylgeraniol control 100. 0.78% of 330,000 active;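 active = mean ATP rescue above about 67%, or every replicate alone reaching that limit, limit read from the data, passing the limit was not always enough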;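 also: myotubes were challenged with 10 µM simvastatin during compound exposure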
PglD inh = inhibitors of Campylobacter jejuni PglD acetyltransferase. purified PglD enzyme, DTNB colorimetric CoA detection. AID 602405. inhibition, % at 12.5 µM. 0.098% of 360,000 active; in the data active = inhibition above about 16%, passing the limit was not always enough
esBAF inh = inhibitors of esBAF chromatin remodeling in mouse ES cells | reporter increase, % at 12.5 µM | Bmi1-luciferase knock-in reporter, 24 h; 100% = twice the neutral-well signal | 2% of 350,000 active; in the data active = activation above about 40%;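 also: 0% = median of the plate's neutral control wells and 100% = double that signal; a rise in the Bmi1 reporter signal indicates esBAF inhibition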
Numbers without * were called inactive; / = no result.

SMILES	E-sel inducer	PGC1a acetyl inh	UUG fidelity	Statin myotox sup	PglD inh	esBAF inh
C#CCOCCOCCOCCNc1nc(N2CCN(C(=O)CCCCCCCCCCNC(=O)[C@@H]([C@H](C)O)n3cc(C)nn3)CC2)nc(N2CCN(C(=O)CCCCCCCCCCNC(=O)[C@@H]([C@H](C)O)n3cc(C)nn3)CC2)n1	1	-5	-16	77*	1	7
Cc1ccc(S(=O)(=O)Nc2ccc3c(c2)C(=O)N([C@@H](C)CO)C[C@@H](C)[C@H](CN(C)C(=O)Nc2ccc(F)cc2)OCCCC[C@@H](C)O3)cc1	/	1	7	/	6	3
CN1[C@@H]2Cn3c(ccc(-c4ccccc4)c3=O)[C@H]1[C@@H](C(=O)Nc1nccs1)[C@@H]2CO	0	/	/	9	4	0
O=C(O)C[C@@H]1C[C@@H]2c3cc(NC(=O)Cc4ccncc4)ccc3O[C@@H]2[C@H](CO)O1	0	-4	/	/	/	/
c1ccc(Cn2c(-c3cncs3)nc3ccccc32)cc1	/	3	-36	-2	4	66*
N#CCC(=O)Nc1ccc(C(=O)OCC(=O)NCc2ccc3c(c2)OCO3)cc1	0	-4	/	12	/	-4
N#CCC(=O)Nc1ccc(C(=O)OCC(=O)NC(=O)Nc2ccc3c(c2)OCCO3)cc1	-1	17	-8	-13	-2	61*
O=C(Nc1ccc2nc3n(c(=O)c2c1)CCCC3)c1cccc(F)c1	/	/	-11	-33	1	45*
COc1ccc(C(=O)Nc2ccc3nc4n(c(=O)c3c2)CCCCC4)cc1OC	1	/	-2	-25	-2	20
O=C(Nc1ccc2nc3n(c(=O)c2c1)CCCC3)c1ccccc1F	0	2	0	-7	-3	45*
O=C(Nc1ccc(SC(F)F)cc1)c1ccc2c(=O)n3c(nc2c1)CCC3	/	-4	-23	-67	9	87*
Cc1cc(C)c2nc(NC(=O)c3ccc4c(=O)n5c(nc4c3)CCCCC5)sc2c1	35*	/	/	/	/	/

Individual results from the results shown:
For PglD inh, `N#CCC(=O)Nc1ccc(C(=O)OCC(=O)NC(=O)Nc2ccc3c(c2)OCCO3)cc1` has -2
For Statin myotox sup, `O=C(Nc1ccc(SC(F)F)cc1)c1ccc2c(=O)n3c(nc2c1)CCC3` has -67

(continued)
SMILES	E-sel inducer	PGC1a acetyl inh	UUG fidelity	Statin myotox sup	PglD inh	esBAF inh
CNC[C@H]1OCCCC[C@H](C)Oc2ccc(NS(=O)(=O)c3ccccc3)cc2C(=O)N([C@@H](C)CO)C[C@@H]1C	0	-3	/	-52	/	-7
CCCNC(=O)Nc1ccc2c(c1)C(=O)N(C)C[C@H](OC)[C@H](C)CN(Cc1ccc(-c3ccccn3)cc1)[C@H](C)CO2	0	-3	/	-2	-3	5
CNC[C@@H]1Oc2ncc(-c3ccccc3C)cc2C(=O)N([C@H](C)CO)C[C@@H]1C	0	2	/	/	/	/
CC(C)C#Cc1ccc2c(c1)O[C@@H](CN(C)CC1CC1)[C@@H](C)CN([C@H](C)CO)S2(=O)=O	0	-24	16	-5	1	4
O=C(Nc1ccc2nc3n(c(=O)c2c1)CCCCC3)c1c(F)ccc([N+](=O)[O-])c1F	/	/	-16	204*	-3	-85
O=C(Nc1ccc2nc3n(c(=O)c2c1)CCCCC3)c1cc([N+](=O)[O-])ccc1F	/	/	-4	-39	-3	-23
C[C@@H]1CN([C@@H](C)CO)S(=O)(=O)c2ccc(C3=CCCC3)cc2O[C@@H]1CN(C)Cc1cccnc1	0	1	1	-26	-2	-4
CC(C)Cc1ccc(-c2cc3nc(NCCCn4ccnc4)ccn3n2)cc1	2	4	-22	8	-3	61*
CC(C)Cc1ccc(-c2cc3nc(NCCc4ccc(S(N)(=O)=O)cc4)ccn3n2)cc1	0	-2	-3	16	4	92*
NS(=O)(=O)c1ccc(CCNc2ccn3nc(-c4ccccc4)cc3n2)cc1	0	/	-9	-22	2	29
O=C(C[C@H]1CC[C@@H]2[C@H](COC[C@H](O)CN2C(=O)Nc2ccc(Cl)cc2)O1)NCCc1ccncc1	0	0	/	4	4	38
CC(=O)Nc1cccc(-c2csc(C(O)c3ccccc3)n2)c1 (configuration not stated)	0	9	-1	2	-1	49*
O=C(O)c1cccc(-c2csc(C(O)c3cccc(Cl)c3)n2)c1 (configuration not stated)	0	4	-8	0	-7	48*
COCc1cccc(-c2csc(C(O)c3ccccc3)n2)c1 (configuration not stated)	0	4	-16	14	0	53*
COCc1cccc(-c2csc(C(O)c3cccc(OC)c3)n2)c1 (configuration not stated)	0	/	-7	0	-2	11
OC(c1ccccc1)c1nc(-c2ccccc2)cs1 (configuration not stated)	1	/	4	4	-3	52*
OC(c1ccccc1)c1nc(-c2ccc(Cl)cc2)cs1 (configuration not stated)	2	11	-4	25	3	31
O=C(/C=C/c1ccco1)NC(=S)Nc1cc(-c2nc3ccccc3s2)ccc1Cl	2	/	/	/	/	/
Cc1ccc(-c2nc3ccccc3s2)cc1NC(=S)NC(=O)/C=C/c1ccco1	/	28	-10	-37	-3	65*
N#C/C(=C1\CCCN1)c1ccc2ccccc2n1	/	-18	-15	77*	-5	8
C/C(O)=C(/C#N)c1nc2ccccc2[nH]1	/	-2	-20	40	-7	-24
N#C/C(=C1/CCCCCN1)c1nc2ccccc2[nH]1	/	-30	-7	24	5	50*
CN(CCC1CCCCO1)C(=O)CCc1nnc(C2CCCCC2)o1 (configuration not stated)	2	6	/	6	/	55*
COc1ccc(CCNc2ncccc2C#N)cc1OC	/	4	-21	12	7	54*

4 records picked at random from the list so far:
SMILES	E-sel inducer	PGC1a acetyl inh	UUG fidelity	Statin myotox sup	PglD inh	esBAF inh
O=C(/C=C/c1ccco1)NC(=S)Nc1cc(-c2nc3ccccc3s2)ccc1Cl	2	/	/	/	/	/
O=C(O)c1cccc(-c2csc(C(O)c3cccc(Cl)c3)n2)c1 (configuration not stated)	0	4	-8	0	-7	48*
N#C/C(=C1/CCCCCN1)c1nc2ccccc2[nH]1	/	-30	-7	24	5	50*
OC(c1ccccc1)c1nc(-c2ccc(Cl)cc2)cs1 (configuration not stated)	2	11	-4	25	3	31

Next part
SMILES	E-sel inducer	PGC1a acetyl inh	UUG fidelity	Statin myotox sup	PglD inh	esBAF inh
COCC(=O)Nc1ccc2c(c1)OC[C@H](C)N(Cc1cccc(F)c1)C[C@@H](C)[C@H](OC)CN(C)C2=O	0	4	/	/	/	/
C=CCNC(=S)NNC(=O)COc1ccc2cc(Br)ccc2c1	2	/	-19	26	2	41*
COc1cc(C2SCCS2)cc(Br)c1Oc1ncccc1[N+](=O)[O-]	61*	2	-7	/	-3	/
COc1ccc(S(=O)(=O)N(C)C[C@H]2Oc3c(NC(=O)c4ccncc4)cccc3C(=O)N([C@@H](C)CO)C[C@H]2C)cc1	-11	5	-8	27	0	3
Cc1ccccc1C(=O)N1CCC(C(=O)NN2C(=O)NC3(CCC(C)CC3)C2=O)CC1 (configuration not stated)	/	-1	-2	0	-3	-3
Cc1ccccc1C(=O)N1CCC(C(=O)NN2C(=O)NC3(CCCCC3)C2=O)CC1	264*	/	-9	-1	-5	-2
Cc1ccc(C(=O)NCCC(=O)N2CCOCC2)cc1	0	/	-17	/	/	/
Cc1ccc(C(=O)NCCn2cc(SCC(=O)Nc3cc(C)on3)c3ccccc32)cc1	5	-14	-39	2	3	58*

Bioassay records (PubChem)
